PubChem BioAssay AID1159580 (chemical genetic matrix, 2015)
This is a selection; strong and weak results do not stand in their true shares. Calls of active or inactive are those of the source. Rule as the data show it: active = normalized growth mostly below about 0.91 (no sharp cut-off); inconclusive = no clear call, values can overlap the other calls; inactive = mostly above about 0.92.

Experiment: chemical genetic growth profiling, strain panel (AID 1159580);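 also: tested at 20 µM; growth read once vehicle control cultures reached saturation at 30 °C; 1 = growth at the plate median or of vehicle wells; lower values mean less growth of the strain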
Details: growth OD

Measured: normalized growth

CN(CCCl)CCCl
active: S. cerevisiae deletion strains, locus YJR066W, strain TOR1, active compounds read low 0.0142 | S. cerevisiae deletion strains, locus YJR075W, strain HOC1, active compounds read low 0.0654 | S. cerevisiae deletion strains, locus YKL009W, strain mrt4, active compounds read low 0.0849 | S. cerevisiae deletion strains, locus YKL068W, active compounds read low 0.0604 | S. cerevisiae deletion strains, locus YKL085W, strain MDH1 (second series), active compounds read low 0.054 | S. cerevisiae deletion strains, locus YKL085W, strain MDH1, active compounds read low 0.054 | S. cerevisiae deletion strains, locus YKL160W, strain elf1, active compounds read low 0.0629 | S. cerevisiae deletion strains, locus YKL190W, strain CNB1, active compounds read low 0.0509 | S. cerevisiae deletion strains, locus YKR001C, strain vps1, active compounds read low 0.0643 | S. cerevisiae deletion strains, locus YKR026C, strain gcn3, active compounds read low 0.065 | S. cerevisiae deletion strains, locus YKR091W, strain srl3, active compounds read low 0.0603 | S. cerevisiae deletion strains, locus YLL001W, strain dnm1, active compounds read low 0.0595 | S. cerevisiae deletion strains, locus YLL026W, active compounds read low 0.0607 | S. cerevisiae deletion strains, locus YLL041C, strain sdh2, active compounds read low 0.0588 | S. cerevisiae deletion strains, locus YLR027C, strain aat2, active compounds read low 0.0557 | S. cerevisiae deletion strains, locus YLR039C, strain RIC1, active compounds read low 0.0984 | S. cerevisiae deletion strains, locus YLR058C, strain SHM2, active compounds read low 0.051 | S. cerevisiae deletion strains, locus YLR102C, strain apc9, active compounds read low 0.0624 | S. cerevisiae deletion strains, locus YLR113W, strain HOG1, active compounds read low 0.127 | S. cerevisiae deletion strains, locus YLR221C, strain rsa3, active compounds read low 0.062 | S. cerevisiae deletion strains, locus YLR258W, strain gsy2, active compounds read low 0.0616 | S. cerevisiae deletion strains, locus YLR262C, strain YPT6 (second series), active compounds read low 0.0823 | S. cerevisiae deletion strains, locus YLR262C, strain YPT6, active compounds read low 0.11 | S. cerevisiae deletion strains, locus YLR268W, strain sec22, active compounds read low 0.0656 | S. cerevisiae deletion strains, locus YLR320W, strain mms22, active compounds read low 0.0861 | S. cerevisiae deletion strains, locus YLR330W, strain CHS5, active compounds read low 0.0554 | S. cerevisiae deletion strains, locus YLR342W, strain FKS1 (second series), active compounds read low 0.0772 | S. cerevisiae deletion strains, locus YLR342W, strain FKS1, active compounds read low 0.0663 | S. cerevisiae deletion strains, locus YLR357W, strain rsc2, active compounds read low 0.121 | S. cerevisiae deletion strains, locus YLR370C, strain arc18, active compounds read low 0.0609 | S. cerevisiae deletion strains, locus YLR371W, strain rom2, active compounds read low 0.0633 | S. cerevisiae deletion strains, locus YLR384C, strain iki3, active compounds read low 0.0625 | S. cerevisiae deletion strains, locus YLR418C, strain cdc73, active compounds read low 0.0939 | S. cerevisiae deletion strains, locus YML016C, strain PPZ1, active compounds read low 0.0519 | S. cerevisiae deletion strains, locus YML032C, strain rad52, active compounds read low 0.0693 | S. cerevisiae deletion strains, locus YML120C, strain ndi1, active compounds read low 0.0588 | S. cerevisiae deletion strains, locus YML124C, strain tub3, active compounds read low 0.0596 | S. cerevisiae deletion strains, locus YMR058W, strain fet3, active compounds read low 0.0595 | S. cerevisiae deletion strains, locus YMR078C, strain ctf18, active compounds read low 0.0743 | S. cerevisiae deletion strains, locus YMR125W, strain sto1, active compounds read low 0.0732 | S. cerevisiae deletion strains, locus YMR129W, active compounds read low 0.0577 | S. cerevisiae deletion strains, locus YMR205C, strain PFK2, active compounds read low 0.0855 | S. cerevisiae deletion strains, locus YMR223W, strain ubp8, active compounds read low 0.0632 | S. cerevisiae deletion strains, locus YMR231W, strain pep5, active compounds read low 0.0696 | S. cerevisiae deletion strains, locus YMR263W, strain SAP30, active compounds read low 0.0646 | S. cerevisiae deletion strains, locus YMR307W, strain GAS1, active compounds read low 0.121 | S. cerevisiae deletion strains, locus YNL067W, strain RPL9B, active compounds read low 0.0543 | S. cerevisiae deletion strains, locus YNL071W, strain lat1, active compounds read low 0.0605 | S. cerevisiae deletion strains, locus YNL128W, strain TEP1, active compounds read low 0.0653 | S. cerevisiae deletion strains, locus YNL153C, strain GIM3, active compounds read low 0.0483 | S. cerevisiae deletion strains, locus YNL183C, strain NPR1, active compounds read low 0.00229 | S. cerevisiae deletion strains, locus YNL209W, strain ssb2, active compounds read low 0.0607 | S. cerevisiae deletion strains, locus YNL233W, strain BNI4, active compounds read low 0.0557 | S. cerevisiae deletion strains, locus YNL248C, strain rpa49, active compounds read low 0.0717 | S. cerevisiae deletion strains, locus YNL250W, strain rad50, active compounds read low 0.0702 | S. cerevisiae deletion strains, locus YNL271C, strain bni1, active compounds read low 0.0672 | S. cerevisiae deletion strains, locus YNL298W, strain CLA4, active compounds read low 0.0642 | S. cerevisiae deletion strains, locus YNL307C, strain MCK1, active compounds read low 0.0699 | S. cerevisiae deletion strains, locus YNL322C, strain KRE1 (second series), active compounds read low 0.0856 | S. cerevisiae deletion strains, locus YNL322C, strain KRE1, active compounds read low 0.0511 | S. cerevisiae deletion strains, locus YNR049C, strain mso1, active compounds read low 0.0575 | S. cerevisiae deletion strains, locus YNR052C, strain pop2, active compounds read low 0.0643 | S. cerevisiae deletion strains, locus YOL006C, strain TOP1, active compounds read low 0.116 | S. cerevisiae deletion strains, locus YOL147C, strain pex11, active compounds read low 0.0577 | S. cerevisiae deletion strains, locus YOR001W, strain rrp6, active compounds read low 0.0707 | S. cerevisiae deletion strains, locus YOR061W, strain CKA2, active compounds read low 0.047 | S. cerevisiae deletion strains, locus YOR069W, strain VPS5, active compounds read low 0.0544 | S. cerevisiae deletion strains, locus YOR070C, strain gyp1, active compounds read low 0.0603 | S. cerevisiae deletion strains, locus YOR080W, strain dia2, active compounds read low 0.0708 | S. cerevisiae deletion strains, locus YOR083W, strain WHI5, active compounds read low 0.0636 | S. cerevisiae deletion strains, locus YOR106W, strain vam3, active compounds read low 0.0609 | S. cerevisiae deletion strains, locus YOR136W, strain idh2, active compounds read low 0.0736 | S. cerevisiae deletion strains, locus YOR144C, strain elg1, active compounds read low 0.0589 | S. cerevisiae deletion strains, locus YOR184W, strain ser1, active compounds read low 0.0702 | S. cerevisiae deletion strains, locus YOR231W, strain MKK1, active compounds read low 0.118 | S. cerevisiae deletion strains, locus YOR265W, strain rbl2, active compounds read low 0.0581 | S. cerevisiae deletion strains, locus YOR270C, strain vph1, active compounds read low 0.0929 | S. cerevisiae deletion strains, locus YOR290C, strain snf2, active compounds read low 0.0656 | S. cerevisiae deletion strains, locus YOR316C, strain cot1, active compounds read low 0.0595 | S. cerevisiae deletion strains, locus YPL051W, strain arl3, active compounds read low 0.0646 | S. cerevisiae deletion strains, locus YPL055C, strain LGE1, active compounds read low 0.0719 | S. cerevisiae deletion strains, locus YPL078C, strain atp4, active compounds read low 0.0631 | S. cerevisiae deletion strains, locus YPL106C, strain sse1, active compounds read low 0.106 | S. cerevisiae deletion strains, locus YPL240C, strain hsp82, active compounds read low 0.057 | S. cerevisiae deletion strains, locus YPL241C, strain CIN2, active compounds read low 0.0556 | S. cerevisiae deletion strains, locus YPL256C, strain CLN2, active compounds read low 0.147 | S. cerevisiae deletion strains, locus YPR119W, strain clb2, active compounds read low 0.0641 | S. cerevisiae deletion strains, locus YPR141C, strain kar3, active compounds read low 0.0749 | S. cerevisiae deletion strains, locus YPR163C, strain tif3, active compounds read low 0.0712 | S. cerevisiae deletion strains, locus YPR167C, strain met16, active compounds read low 0.0619 | S. cerevisiae deletion strains, strain wtn01, active compounds read low 0.0597 | S. cerevisiae strains, strain wild type, active compounds read low 0.0496
